Chains of the proteins cited; added tags and fusions are not shown.
UniProt P09874, whole entry: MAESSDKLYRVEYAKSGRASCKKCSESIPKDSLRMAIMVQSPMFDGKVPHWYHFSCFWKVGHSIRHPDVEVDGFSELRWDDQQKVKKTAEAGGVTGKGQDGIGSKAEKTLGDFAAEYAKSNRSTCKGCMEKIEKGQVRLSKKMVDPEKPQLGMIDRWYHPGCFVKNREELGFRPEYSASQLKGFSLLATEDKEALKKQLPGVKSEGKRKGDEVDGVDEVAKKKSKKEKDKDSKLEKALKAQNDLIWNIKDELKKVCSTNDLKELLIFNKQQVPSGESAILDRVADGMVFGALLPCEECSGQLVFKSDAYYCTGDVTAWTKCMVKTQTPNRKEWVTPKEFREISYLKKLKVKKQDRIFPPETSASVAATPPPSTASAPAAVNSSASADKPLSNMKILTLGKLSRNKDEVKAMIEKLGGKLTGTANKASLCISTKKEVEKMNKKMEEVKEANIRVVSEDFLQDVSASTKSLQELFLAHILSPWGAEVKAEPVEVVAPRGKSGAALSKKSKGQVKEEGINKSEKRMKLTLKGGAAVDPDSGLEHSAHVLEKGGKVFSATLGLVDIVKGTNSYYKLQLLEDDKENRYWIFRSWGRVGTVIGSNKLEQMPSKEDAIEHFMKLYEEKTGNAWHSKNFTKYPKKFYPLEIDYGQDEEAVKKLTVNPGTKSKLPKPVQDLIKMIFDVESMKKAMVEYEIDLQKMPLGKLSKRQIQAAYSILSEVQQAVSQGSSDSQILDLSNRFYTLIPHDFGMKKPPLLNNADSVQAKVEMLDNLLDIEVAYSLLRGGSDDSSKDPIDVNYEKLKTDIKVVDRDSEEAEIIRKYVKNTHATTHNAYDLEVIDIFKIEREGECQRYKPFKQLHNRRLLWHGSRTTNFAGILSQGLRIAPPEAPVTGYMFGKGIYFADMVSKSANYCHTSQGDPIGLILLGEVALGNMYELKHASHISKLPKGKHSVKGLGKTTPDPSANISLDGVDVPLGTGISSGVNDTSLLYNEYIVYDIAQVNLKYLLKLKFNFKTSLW

According to ChEMBL document CHEMBL1134117, “Synthesis of substituted 5[H]phenanthridin-6-ones as potent poly(ADP-ribose)polymerase-1 (PARP1) inhibitors” (Bioorg Med Chem Lett, 2001):

Target: Poly [ADP-ribose] polymerase 1 (Homo sapiens, UniProt P09874)
Experiment: Inhibitory concentration against purified recombinant human Poly (ADP-ribose) polymerase 1

Which IC50 does the source give for `Oc1nc2cc(Cl)ccc2c2ccc(Cl)cc12` here?
Its IC50 is 240 nM.
